# According to patent US5731160A, “Induction of antigen specific T-lymphocyte responses by stimulation with peptide loaded MHC class I molecules on antigen processing defective mammalian cell lines” (Rijksuniversiteit Leiden, priority 1992, dated 1998):
# Sequences of proteins named here, by UniProt entry; tags and fusion partners are left off. Residues count along the entry.
# UniProt P01901, 22-369: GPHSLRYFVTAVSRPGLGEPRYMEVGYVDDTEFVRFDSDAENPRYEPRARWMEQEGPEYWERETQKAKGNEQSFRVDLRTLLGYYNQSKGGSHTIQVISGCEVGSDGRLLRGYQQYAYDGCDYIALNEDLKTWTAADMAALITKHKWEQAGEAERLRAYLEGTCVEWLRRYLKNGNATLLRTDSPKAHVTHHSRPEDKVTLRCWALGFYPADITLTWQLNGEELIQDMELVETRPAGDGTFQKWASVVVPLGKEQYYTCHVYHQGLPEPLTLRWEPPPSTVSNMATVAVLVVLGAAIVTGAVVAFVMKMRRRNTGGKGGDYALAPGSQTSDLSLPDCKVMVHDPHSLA
# What was measured:
# [1] = system: RMA-S cells; assay: Induction of primary CTL responses in vitro with peptide-loaded RMA-S cells; assay type: cell-based, murine
# Protocol: RMA-S or RMA cells were pre-cultured for 36 h at 22° C. or 37° C. in IMDM medium supplemented with 2% human pooled serum, penicillin (100 IU/ml), kanamycin (100 μg/ml), S and 2-ME (2×10^-5 M). The cells were irradiated at 7500 rad or mitomycin C treated (50 μg/ml) in serum-free medium, 2 h at 22° C.), washed three times and subsequently incubated for 4 h with or without synthetic peptides, A16 or S16 or S9, at 22° C. in serum-free IMDM medium. Without further washing these (peptide-loaded) RMA-S cells were incubated 1:1(v/v) with C57BL/6 nylon wool-passed spleen cells (B6 NWP SC) in 24-well culture plates: 4×10^6 responder cells and 1×10^6 stimulator cells in 1 ml of culture medium per well in IMDM medium supplemented with 10% FCS, penicillin (100 IU/ml), kanamycin (100 μg/ml), and 2-ME(2×10^-5 M). For a primary CTL response NWP SC of non-immunized C57BL/6 mice were used.
# After 5 days of culture the effectors were harvested on a lymphoprep (Nycomed Pharma, Oslo, Norway) gradient and tested for cytotoxic function on 2000 ^51 Cr-labeled target cells ranging from E/T 50 to E/T 0.8 in twofold dilution steps. The percentage specific ^51 Cr release was calculated by the formula: [formula]
# Background (medium) release was always <25% of maximal (2% Triton X-100) release. […] Cytolytic activity calculated from individual dose-response curves is expressed as lytic units per 10^6 effector cells. […]
# [2] = target: H-2K^b MHC class I molecule (Mus musculus, UniProt P01901); settings: reference 4, cited from earlier work
sequence,measurement,setting,value
FAPGNYPAL [S9],fold lower concentration of 9-mer than of 16-mer peptide sufficing for induction of a T cell response,"[1]; RMA-S pre-cultured at 22° C., FIG. 2A",50 fold
same,fold lower peptide concentration required when RMA-S cells pre-cultured at 22° C. than at 37° C.,"[1]; primary CTL response, FIG. 3B",About 100 fold
same,Binding affinity to MHC class I molecules,[2],able to bind with high affinity
same,Binding affinity to MHC class I molecules,[2]; listed as Sendai peptide of 9aa,binds with high affinity

# Like-named read-outs stand apart in the source and are kept apart here.
